Where “and” joins values, the source holds several entries; their conditions need not be identical. Equal entries are not always repeated.
Tests used:
Mus musculus [1] = experiment: Half life period after (ip) administration of 50 mg/kg in B6D2F1 mice; conditions: in vivo
Mus musculus [2] = experiment: Toxicity in female B6D2F1 mice measured as BUN when given 0 mg/kg daily * 5 (ip); conditions: in vivo
Mus musculus [3] = experiment: Toxicity in female B6D2F1 mice measured as BUN when given 12.5 mg/kg daily * 5 (ip); conditions: in vivo
Mus musculus [4] = experiment: Toxicity in female B6D2F1 mice measured as BUN when given 25 mg/kg daily * 5 (ip); conditions: in vivo
Mus musculus [5] = experiment: Toxicity in female B6D2F1 mice measured as alanine aminotransferase when given 12.5 mg/kg daily * 5 (ip); conditions: in vivo
Mus musculus [6] = experiment: Toxicity in female B6D2F1 mice measured as alanine aminotransferase when given 2.5 mg/kg daily * 5 (ip); conditions: in vivo
Mus musculus [7] = experiment: Toxicity in female B6D2F1 mice measured as alanine aminotransferase when given 25 mg/kg daily * 5 (ip); conditions: in vivo
Mus musculus [8] = experiment: Toxicity in female B6D2F1 mice measured as alanine aminotransferase when given 0 mg/kg daily * 5 (ip); conditions: in vivo
Mus musculus [9] = experiment: Toxicity to bone marrow granulocyte/macrophage progenitors per femur at a dose of 100 mg/kg (ip); conditions: in vivo
Mus musculus [10] = experiment: Toxicity to bone marrow granulocyte/macrophage progenitors per femur at a dose of 25 mg/kg (ip); conditions: in vivo
Mus musculus [11] = experiment: Toxicity to bone marrow granulocyte/macrophage progenitors per femur at a dose of 30 mg/kg (ip); conditions: in vivo
Mus musculus [12] = experiment: Antitumor activity in MX-1 Xenograft Model at a dose of 12.5 mg/kg (ip) measured as percent growth inhibition
Mus musculus [13] = experiment: Antitumor activity in MX-1 Xenograft Model at a dose of 25 mg/kg (ip) measured as percent growth inhibition
Mus musculus [14] = experiment: Antitumor activity in MX-1 Xenograft Model at a dose of 40 mg/kg (po) measured as percent growth inhibition
Mus musculus [15] = experiment: Toxicity in female B6D2F1 mice measured as RBC count when given 2.5 mg/kg daily * 5 (ip); conditions: in vivo
Mus musculus [16] = experiment: Toxicity in female B6D2F1 mice measured as RBC count when given 0 mg/kg daily * 5 (ip); conditions: in vivo
Mus musculus [17] = experiment: Antitumor activity against B16 murine melanoma at a dose of 12.5 mg/kg (ip) measured as 60-day survivors (% LTS)
Mus musculus [18] = experiment: Antitumor activity against B16 murine melanoma at a dose of 25 mg/kg (ip) measured as 60-day survivors (% LTS)
Mus musculus [19] = experiment: Antitumor activity against L1210 cyclophosphamide resistant melanoma at a dose of 25 mg/kg (ip) measured as 60-day survivors (% LTS)
Mus musculus [20] = experiment: Antitumor activity against L1210 wild type melanoma at a dose of 25 mg/kg (ip) measured as 60-day survivors (% LTS)
Mus musculus [21] = experiment: Toxicity in female B6D2F1 mice measured as spleen wt when given 2.5 mg/kg daily * 5 (ip); conditions: in vivo
Mus musculus [22] = experiment: Toxicity in female B6D2F1 mice measured as spleen wt when given 25 mg/kg daily * 5 (ip); conditions: in vivo
Mus musculus [23] = experiment: Toxicity in female B6D2F1 mice measured as thymus wt when given 0 mg/kg daily * 5 (ip); conditions: in vivo
Mus musculus [24] = experiment: Toxicity in female B6D2F1 mice measured as thymus wt when given 12.5 mg/kg daily * 5 (ip); conditions: in vivo
Mus musculus [25] = experiment: Toxicity in female B6D2F1 mice measured as thymus wt when given 2.5 mg/kg daily * 5 (ip); conditions: in vivo
Mus musculus [26] = experiment: Toxicity in female B6D2F1 mice measured as thymus wt when given 25 mg/kg daily * 5 (ip); conditions: in vivo
Mus musculus [27] = experiment: Antitumor activity against B16 murine melanoma at a dose of 12.5 mg/kg (ip) measured as percent weight change on day 8
Mus musculus [28] = experiment: Antitumor activity against B16 murine melanoma at a dose of 25 mg/kg (ip) measured as percent weight change on day 8
Mus musculus [29] = experiment: Antitumor activity against L1210 wild type murine melanoma at a dose of 12.5 mg/kg (ip) measured as increased life span (% T/C)
Mus musculus [30] = experiment: Antitumor activity against B16 murine melanoma at a dose of 12.5 mg/kg (ip) measured as increased life span (% T/C)
Mus musculus [31] = experiment: Antitumor activity against B16 murine melanoma at a dose of 25 mg/kg (ip) measured as increased life span (% T/C)
Mus musculus [32] = experiment: Toxicity in female B6D2F1 mice measured as platelet count when given 0 mg/kg daily * 5 (ip); conditions: in vivo
Mus musculus [33] = experiment: Toxicity in female B6D2F1 mice measured as platelet count when given 12.5 mg/kg daily * 5 (ip); conditions: in vivo
Mus musculus [34] = experiment: Antitumor activity against L1210 cyclophosphamide resistant murine melanoma at a dose of 12.5 mg/kg (ip) measured as percent weight change on day 8
Mus musculus [35] = experiment: Antitumor activity in MX-1 Xenograft Model at a dose of 12.5 mg/kg (ip) measured as percent weight change on day 8
Mus musculus [36] = experiment: Antitumor activity in MX-1 Xenograft Model at a dose of 25 mg/kg (ip) measured as percent weight change on day 8
Mus musculus [37] = experiment: Antitumor activity in MX-1 Xenograft Model at a dose of 40 mg/kg (po) measured as percent weight change on day 8
Mus musculus [38] = experiment: Antitumor activity in MX-1 Xenograft Model at a dose of 12.5 mg/kg (ip) measured as number of mice with partial tumor regression
Mus musculus [39] = experiment: Antitumor activity in MX-1 Xenograft Model at a dose of 25 mg/kg (ip) measured as number of mice with partial tumor regression
Mus musculus [40] = experiment: Antitumor activity in MX-1 Xenograft Model at a dose of 40 mg/kg (po) measured as number of mice with partial tumor regression
Mus musculus [41] = experiment: Toxicity in female B6D2F1 mice measured as spleen wt when given 12.5 mg/kg daily * 5 (ip); conditions: in vivo
Mus musculus [42] = experiment: Toxicity in female B6D2F1 mice measured as alkaline phosphatase when given 0 mg/kg daily * 5 (ip); conditions: in vivo
Mus musculus [43] = experiment: Toxicity in female B6D2F1 mice measured as spleen wt when given 0 mg/kg daily * 5 (ip); conditions: in vivo
Mus musculus [44] = experiment: Antitumor activity in MX-1 Xenograft Model at a dose of 12.5 mg/kg (ip) measured as number of mice with complete tumor regression
Mus musculus [45] = experiment: Antitumor activity in MX-1 Xenograft Model at a dose of 25 mg/kg (ip) measured as number of mice with complete tumor regression
Mus musculus [46] = experiment: Antitumor activity in MX-1 Xenograft Model at a dose of 40 mg/kg (po) measured as number of mice with complete tumor regression
Mus musculus [47] = experiment: Toxicity in female B6D2F1 mice measured as platelet count when given 2.5 mg/kg daily * 5 (ip); conditions: in vivo
Mus musculus [48] = experiment: Toxicity in female B6D2F1 mice measured as platelet count when given 25 mg/kg daily * 5 (ip); conditions: in vivo
Mus musculus [49] = experiment: Toxicity in female B6D2F1 mice measured as alkaline phosphatase when given 2.5 mg/kg daily * 5 (ip); conditions: in vivo
Mus musculus [50] = experiment: Toxicity in female B6D2F1 mice measured as alkaline phosphatase when given 25 mg/kg daily * 5 (ip); conditions: in vivo
Mus musculus [51] = experiment: Toxicity in female B6D2F1 mice measured as WBC count when given 0 mg/kg daily * 5 (ip); conditions: in vivo
Mus musculus [52] = experiment: Toxicity in female B6D2F1 mice measured as WBC count when given 12.5 mg/kg daily * 5 (ip); conditions: in vivo
Mus musculus [53] = experiment: Toxicity in female B6D2F1 mice measured as WBC count when given 25 mg/kg daily * 5 (ip); conditions: in vivo

How did the T1/2 (Mus musculus [1]) turn out when `NP(=O)(OCc1ccc([N+](=O)[O-])s1)N(CCBr)CCBr` (stereo not drawn) was run?
Its T1/2 is 4.3 min.

What about the BUN (Mus musculus [2]) of the same compound?
Its BUN is 23.4 mg/dL and 18.4 mg/dL.

And the BUN (Mus musculus [3])?
The BUN was 19.2 mg/dL.

And the BUN (Mus musculus [4])?
Its BUN is 17 mg/dL.

And the ALT. (Mus musculus [5])?
The ALT. was 27 U l-1.

What about the ALT. (Mus musculus [6]) of the same compound?
The ALT. was 34 U l-1.

What about the ALT. (Mus musculus [7]) of the same compound?
Its ALT. is 43 U l-1.

What about the ALT. (Mus musculus [8]) of the same compound?
The ALT. was 22 U l-1.

And the Control (Mus musculus [9])?
Its Control is 45%.

And the Control (Mus musculus [10])?
Its Control is 14%.

And the Control (Mus musculus [11])?
The Control was 87%.

What about the growth inhibition (GI) (Mus musculus [12]) of the same compound?
Its growth inhibition (GI) is 98%.

And the growth inhibition (GI) (Mus musculus [13])?
Its growth inhibition (GI) is > 99%.

And the growth inhibition (GI) (Mus musculus [14])?
The growth inhibition (GI) was 87%.

And the RBC x 10e 3 (Mus musculus [15])?
Its RBC x 10e 3 is 7.5 µL⁻¹.

What about the RBC x 10e 3 (Mus musculus [16]) of the same compound?
The RBC x 10e 3 was 10.1 µL⁻¹ and 8.6 µL⁻¹ and 9.7 µL⁻¹.

What about the LTS (Mus musculus [17]) of the same compound?
The LTS was 30%.

What about the LTS (Mus musculus [18]) of the same compound?
The LTS was 20%.

And the LTS (Mus musculus [19])?
The LTS was 10%.

And the LTS (Mus musculus [20])?
The LTS was 70%.

What about the Weight (Mus musculus [21]) of the same compound?
Its Weight is 91 mg.

What about the Weight (Mus musculus [22]) of the same compound?
Its Weight is 23 mg.

What about the Weight (Mus musculus [23]) of the same compound?
The Weight was 41 mg.

What about the Weight (Mus musculus [24]) of the same compound?
Its Weight is 32 mg.

What about the Weight (Mus musculus [25]) of the same compound?
Its Weight is 62 mg.

And the Weight (Mus musculus [26])?
The Weight was 7 mg.

And the Weight change (Mus musculus [27])?
Its Weight change is 2%.

And the Weight change (Mus musculus [28])?
The Weight change was 17%.

What about the T/C (Mus musculus [29]) of the same compound?
The T/C was 139%.

What about the T/C (Mus musculus [30]) of the same compound?
The T/C was 186%.

What about the T/C (Mus musculus [31]) of the same compound?
The T/C was 180%.

And the Platelets x10e-3 (Mus musculus [32])?
Its Platelets x10e-3 is 890 µL⁻¹.

And the Platelets x10e-3 (Mus musculus [33])?
The Platelets x10e-3 was 1210 µL⁻¹.

What about the Weight change (Mus musculus [34]) of the same compound?
Its Weight change is 5%.

What about the Weight change (Mus musculus [35]) of the same compound?
The Weight change was 3%.

And the Weight change (Mus musculus [36])?
The Weight change was 8%.

What about the Weight change (Mus musculus [37]) of the same compound?
The Weight change was 7%.

What about the No. partial (Mus musculus [38]) of the same compound?
Its No. partial is 4.

And the No. partial (Mus musculus [39])?
The No. partial was 4.

What about the No. partial (Mus musculus [40]) of the same compound?
The No. partial was 2.

What about the Weight (Mus musculus [41]) of the same compound?
Its Weight is 67 mg.

What about the alkaline phosphatase activity (Mus musculus [42]) of the same compound?
The alkaline phosphatase activity was 143 U l-1 and 133 U l-1.

What about the Weight (Mus musculus [43]) of the same compound?
The Weight was 64 mg.

And the No. total (Mus musculus [44])?
Its No. total is 0.

And the No. total (Mus musculus [45])?
The No. total was 6.

What about the No. total (Mus musculus [46]) of the same compound?
Its No. total is 0.

And the Platelets x10e-3 (Mus musculus [47])?
The Platelets x10e-3 was 737 µL⁻¹.

And the Platelets x10e-3 (Mus musculus [48])?
Its Platelets x10e-3 is 523 µL⁻¹.

What about the alkaline phosphatase activity (Mus musculus [49]) of the same compound?
The alkaline phosphatase activity was 144 U l-1.

And the alkaline phosphatase activity (Mus musculus [50])?
Its alkaline phosphatase activity is 63 U l-1.

What about the WBC x10e-3 (Mus musculus [51]) of the same compound?
Its WBC x10e-3 is 6.7 µL⁻¹ and 5.6 µL⁻¹.

And the WBC x10e-3 (Mus musculus [52])?
Its WBC x10e-3 is 3.9 µL⁻¹.

And the WBC x10e-3 (Mus musculus [53])?
Its WBC x10e-3 is 2.1 µL⁻¹.

— ChEMBL document CHEMBL1134466 (J Med Chem, 2001)
